Assay results taken from patent publication US7939631B2, “APO-2 receptor polypeptides” (Genentech, Inc., priority 1997, dated 2011).

What was measured:
NF-κB [1] = assay: NF-κB electrophoretic mobility shift assay in HeLa cells; format: cell-based, human; details: 1 μg/ml; FIG. 5B
Procedure: (§1) HeLa cells were transfected with pRK5 expression plasmids encoding full-length native sequence Apo-2, DR4 or Apo-3 and harvested 24 hours after transfection. […] Immunol., 153:5274-5284 (1994)], alone or together with a 50-fold excess of unlabelled probe, or with an irrelevant ^32P-labelled synthetic oligonucleotide […] […] In some samples, antibody to p65/RelA subunits of NF-κB (1 μg/ml; Santa Cruz Biotechnology) was added. DNA binding was analyzed by an electrophoretic mobility shift assay as described by Hsu et al., supra; Marsters et al., supra, and MacKay et al., supra.

NF-κB [2] = assay: NF-κB electrophoretic mobility shift assay in MCF7 cells; format: cell-based, human; details: 1 μg/ml; FIG. 5B
Procedure: as §1

TNF-alpha: tumor necrosis factor-α (Genentech, Inc.)
NF-κB activation in HeLa cells (NF-κB [1]): induced a more pronounced activation in both cell lines | NF-κB activation in MCF7 cells (NF-κB [2]): induced a more pronounced activation in both cell lines
